Laboratory results from publication PMC11463018 (Journal of Enzyme Inhibition and Medicinal Chemistry, 2024).

Test system: RPMI-8226 cells
Assay: Apoptosis assay
Conditions: 1 μM, 48 h, flow cytometry

Compound	Induction of RPMI-8226 cells apoptosis [%]
O=C(CCCCCCC(=O)Nc1ccccc1)NO [SAHA, vorinostat, reference compound]	62.2
O=C(Nc1nc2cccc(-c3ccc(CN4CCS(=O)(=O)CC4)cc3)n2n1)C1CC1 [Filgotinib, reference compound]	15.28
